{"source": "paper PMC10689320", "about": "(Dermatology and Therapy, 2023)", "key": {"[1]": {"conditions": "additional PK analyses, stated in Introduction, no reference given; cited from earlier work"}, "[2]": {"type": "in vivo, healthy Chinese subjects"}, "[3]": {"assay": "Safety: adverse event monitoring", "type": "in vivo, healthy Chinese subjects"}, "[4]": {"conditions": "first-in-human study, healthy subjects; cited from earlier work"}}}
{"substance": "Deucravacitinib", "values": [{"measurement": "direct urinary elimination", "setting": "[1]", "result": "~ 13 % of dose"}, {"measurement": "elimination by metabolism by CYP2B6/CYP2D6", "setting": "[1]", "result": "~ 6 % of dose"}, {"measurement": "elimination by metabolism by carboxylesterase 2", "setting": "[1]", "result": "~ 15 % of dose"}, {"measurement": "elimination by metabolism by cytochrome P450 (CYP) 1A2", "setting": "[1]", "result": "~ 25 % of dose"}, {"measurement": "elimination by metabolism by uridine 5′-diphospho-glucuronosyltransferase 1A9", "setting": "[1]", "result": "~ 24 % of dose"}, {"measurement": "fecal excretion", "setting": "[1]", "result": "~ 26 % of dose"}, {"measurement": "median time to maximal plasma concentration (tmax)", "setting": "[2]; range over single dose and multiple daily doses of 6 mg or 12 mg", "result": "1.5 to 2.3", "unit": "h"}, {"measurement": "dose dependence of systemic exposure", "setting": "[2]; single or multiple doses, 6 mg vs 12 mg", "result": "increased approximately twofold with twofold dose increase"}, {"measurement": "overall safety and tolerability", "setting": "[3]; single or multiple doses of 6 mg or 12 mg once daily", "result": "safe and well tolerated"}, {"measurement": "deaths", "setting": "[3]; whole study", "result": "No deaths were reported"}, {"measurement": "treatment-related mild rash", "setting": "[3]; whole study", "result": "14 [35%] n [%]"}, {"measurement": "plasma half-life (t1/2)", "setting": "[4]", "result": "8 to 15", "unit": "h"}, {"measurement": "time to maximum plasma concentration (tmax)", "setting": "[4]", "result": "≤ 1.0", "unit": "h"}]}
